In US20140328918A1, “METHODS OF TREATING A SUBJECT AND RELATED PARTICLES, POLYMERS AND COMPOSITIONS” (CERULEAN PHARMA INC., priority 2010, published 2014):

Assays:
[1] = for In vitro degradation of conjugate (24 hrs in PBS at 37° C.) / In vitro release of free drug (24 hrs in PBS at 37° C.): 0.1x PBS, pH = 7.4, 37° C.; for stability of the linker toward hydrolysis in vitro: CDP-linker-docetaxel, 37° C., 0.1x PBS pH 7.4, 24 h
Description: A 10 mg/mL (with regard to polymer) solution of each CDP-linker-DTX nanoparticle was prepared in water (pH<5) or in 0.1×PBS buffer (pH=7.4). An aliquot of 100 μL was transferred into corresponding HPLC vials. A vial containing each CDP-linker-DTX nanoparticle in water for each designated time point was placed in both: 1) a water bath at 37° C. and 2) kept at room temperature at 25° C. Samples were mixed using a water bath shaker at 100 rpm during the experiments. At each designated time point, a vial was removed for each CDP-linker-DTX nanoparticle and processed for HPLC using a sample preparation procedure.
If there was any precipitated material in the vial, the contents were also stirred to dissolve the precipitate. If the sample was still opaque, an additional 25 μL of 0.1% formic acid in ACN was added.
The sample degradation was calculated based on the percentage of the amount of conjugated drug with regard to the initial starting point of the experiment (at t=0).

[2] = Particle properties (Zavg, PDI, Dv50, Dv90) by dynamic light scattering; format: physicochemical
Source text: Particle solution properties were characterized by dynamic light scattering (DLS) spectrometer.

| Substance | In vitro degradation of conjugate (24 hrs in PBS at 37° C.) [1] | In vitro release of free drug (24 hrs in PBS at 37° C.) [1] | stability of the linker toward hydrolysis in vitro [1] | Dv50 [2] | Dv90 [2] | Particle PDI [2] | Zavg (Z-average) [2] |
| --- | --- | --- | --- | --- | --- | --- | --- |
| CDP-2′-glycine-docetaxel | 84% | 88% | more susceptible to hydrolysis |  |  |  |  |
| CDP-Alanine Glycolate-Docetaxel | 96% | 95% | more susceptible to hydrolysis | 12.9 nm | 26.1 nm | 0.280 | 35.81 nm |
| CDP-hexanoate-docetaxel [CDP-hexanoate-docetaxel nanoparticles] | 7% | 8% | relatively stable toward hydrolysis in vitro |  |  |  |  |
